Data reported in PubChem BioAssay AID434962 (The Scripps Research Institute Molecular Screening Center, 2010).
This is a selection; strong and weak results do not stand in their true shares. Calls of active or inactive are those of the source.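 Rule for the calls: active = percent inhibition above the average of all tested compounds plus 3 SD, set per screening campaign (cut at about 16% in these data); inactive = the rest.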

Chains of the proteins cited; added tags and fusions are not shown.
UniProt P14735, whole entry: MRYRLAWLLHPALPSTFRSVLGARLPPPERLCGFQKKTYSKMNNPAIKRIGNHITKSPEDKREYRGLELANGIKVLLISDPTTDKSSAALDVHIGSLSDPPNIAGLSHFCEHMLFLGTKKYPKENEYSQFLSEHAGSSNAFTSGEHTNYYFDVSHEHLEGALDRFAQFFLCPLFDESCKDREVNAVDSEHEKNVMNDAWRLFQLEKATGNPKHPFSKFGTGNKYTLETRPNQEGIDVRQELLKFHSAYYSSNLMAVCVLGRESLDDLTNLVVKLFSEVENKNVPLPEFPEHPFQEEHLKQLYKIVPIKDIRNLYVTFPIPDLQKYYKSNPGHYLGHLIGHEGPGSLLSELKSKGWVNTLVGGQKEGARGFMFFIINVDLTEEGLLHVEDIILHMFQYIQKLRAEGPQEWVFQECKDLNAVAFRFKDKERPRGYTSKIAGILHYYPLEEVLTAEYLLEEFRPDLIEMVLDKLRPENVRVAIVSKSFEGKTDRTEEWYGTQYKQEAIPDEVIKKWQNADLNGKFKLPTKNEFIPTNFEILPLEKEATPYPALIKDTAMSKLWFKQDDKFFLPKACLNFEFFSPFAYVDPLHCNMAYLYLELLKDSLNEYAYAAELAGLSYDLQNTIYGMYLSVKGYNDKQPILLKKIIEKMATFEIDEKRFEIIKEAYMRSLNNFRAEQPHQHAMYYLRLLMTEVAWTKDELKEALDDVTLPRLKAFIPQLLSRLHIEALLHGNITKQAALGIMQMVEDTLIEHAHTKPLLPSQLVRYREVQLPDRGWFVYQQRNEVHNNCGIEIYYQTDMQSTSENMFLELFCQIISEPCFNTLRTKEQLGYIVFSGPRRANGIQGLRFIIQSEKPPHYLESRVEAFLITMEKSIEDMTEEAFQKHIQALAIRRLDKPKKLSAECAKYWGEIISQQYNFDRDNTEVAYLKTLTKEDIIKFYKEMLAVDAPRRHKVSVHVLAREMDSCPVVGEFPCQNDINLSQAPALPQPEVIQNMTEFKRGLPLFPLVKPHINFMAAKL

The molecules below were run against Insulin-degrading enzyme (Homo sapiens) (UniProt P14735) (assay: human IDE inhibitors in live cells, primary screen, fluorescence polarization, HEK cells, FAbetaB substrate (AID 434962;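 note: IDE supplied by intact live HEK cells; FP after avidin binding of uncleaved biotin substrate so inhibition keeps polarization high; 0% = DMSO wells and 100% = 60 µM reference IDE inhibitor Ii1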)). Conditions: FAbetaB cleavage, at 5.59 µM, active compounds read high.

SMILES | inhibition
Cc1cccc(C)c1OP(C)(N)=O (configuration not stated) | inactive: 3.33%
O=[N+]([O-])c1cc([N+](=O)[O-])c(Nc2cccnc2)c([N+](=O)[O-])c1 | inactive: 2%
Cc1cc(C)cc(OP(C)(N)=O)c1 (configuration not stated) | inactive: -1.31%
COc1ccccc1OP(C)(=O)Nc1cc(Cl)ccc1C (configuration not stated) | inactive: -2.51%
COc1ccc(OP(C)(=O)Nc2cccc(F)c2)cc1 (configuration not stated) | inactive: 10.8%
COc1ccccc1OP(C)(=O)Nc1ccc(C)cc1 (configuration not stated) | inactive: -0.07%
Cc1ccc(NP(C)(=O)Oc2ccccc2)c(C)c1 (configuration not stated) | inactive: 3.06%
CCOC(=O)c1ccc(NP(C)(=O)Oc2ccccc2)cc1 (configuration not stated) | inactive: 1.79%
CCN(CC)CCCOC(=O)C(O)(c1ccccc1)c1ccccc1 | inactive: 6.1%
CCOC(=O)c1ccc(NP(C)(=O)Oc2cc(C)cc(C)c2)cc1 (configuration not stated) | inactive: 4.73%
Cc1cc(C)cc(OP(C)(=O)Nc2ccc(C)cc2C)c1 (configuration not stated) | inactive: -0.81%
COc1ccccc1OP(C)(=O)Nc1cccc(Br)c1 (configuration not stated) | inactive: 1.64%
Cc1ccc(C)c(NP(C)(=O)Oc2ccccc2)c1 (configuration not stated) | inactive: 2.7%
CP(=O)(Nc1cccc(Br)c1)Oc1ccccc1 (configuration not stated) | inactive: -5.28%
Cc1cc(C)cc(OP(C)(=O)Nc2ccccn2)c1 (configuration not stated) | inactive: 1.01%
O=C(O)c1cccc(Nc2c([N+](=O)[O-])cc([N+](=O)[O-])cc2[N+](=O)[O-])c1 | inactive: 1.71%
CC1=NCCc2c1[nH]c1ccccc21.O=[N+]([O-])c1cc([N+](=O)[O-])c(O)c([N+](=O)[O-])c1 | inactive: -9.87%
O=[N+]([O-])c1cc([N+](=O)[O-])c(Nc2nnnn2CCO)c([N+](=O)[O-])c1 | inactive: -2.15%
CC1=C2N=C(C=C3N=C(C(C)=C4[N-][C@@](C)([C@@H]5N=C1[C@](C)(CCC(=O)NC[C@@H](C)OP(=O)([O-])O[C@H]1[C@@H](O)[C@@H](n6cnc7cc(C)c(C)cc76)O[C@@H]1CO)[C@H]5CC(N)=O)[C@@](C)(CC(N)=O)[C@@H]4CCC(N)=O)[C@@](C)(CC(N)=O)[C@@H]3CCC(N)=O)C(C)(C)[C@@H]2CCC(N)=O.[C-]#N.[Co+3] | inactive: 3.83%
CCOC(=O)C(CC)C1=NC(C)(C)Cc2ccccc21.O=[N+]([O-])c1cc([N+](=O)[O-])c(O)c([N+](=O)[O-])c1 (configuration not stated) | inactive: -0.95%
CP(=O)(Nc1ccc(SC(F)(F)F)cc1)Oc1ccccc1 (configuration not stated) | inactive: 0.68%
CCCOc1ccc(NP(C)(=O)Oc2ccc(Cl)cc2)cc1 (configuration not stated) | inactive: 1.91%
CN1CCCCC1COC(=O)C1(O)c2ccccc2CCc2ccccc21 (configuration not stated) | inactive: -0.14%
COc1ccccc1OP(C)(=O)Nc1c(C)cccc1C (configuration not stated) | inactive: -5.13%
O=[N+]([O-])c1cc([N+](=O)[O-])c(-n2nnc3ccccc32)c([N+](=O)[O-])c1 | inactive: -3.25%
Cc1nc2ccc3ccccc3c2s1.O=[N+]([O-])c1cc([N+](=O)[O-])c(O)c([N+](=O)[O-])c1 | inactive: 1.08%
O=[N+]([O-])c1cc([N+](=O)[O-])c(-c2cnn(-c3ccccc3)c2)c([N+](=O)[O-])c1 | inactive: 1.29%
